From US10307425B2, “Compositions and methods for treating toxoplasmosis, cryptosporidiosis and other apicomplexan protozoan related diseases” (UNIVERSITY OF WASHINGTON, priority 2015, dated 2019) come the findings set out here.

Chains of the proteins cited; added tags and fusions are not shown. Residues count along the entry.
UniProt Q9BJF5, 1-507: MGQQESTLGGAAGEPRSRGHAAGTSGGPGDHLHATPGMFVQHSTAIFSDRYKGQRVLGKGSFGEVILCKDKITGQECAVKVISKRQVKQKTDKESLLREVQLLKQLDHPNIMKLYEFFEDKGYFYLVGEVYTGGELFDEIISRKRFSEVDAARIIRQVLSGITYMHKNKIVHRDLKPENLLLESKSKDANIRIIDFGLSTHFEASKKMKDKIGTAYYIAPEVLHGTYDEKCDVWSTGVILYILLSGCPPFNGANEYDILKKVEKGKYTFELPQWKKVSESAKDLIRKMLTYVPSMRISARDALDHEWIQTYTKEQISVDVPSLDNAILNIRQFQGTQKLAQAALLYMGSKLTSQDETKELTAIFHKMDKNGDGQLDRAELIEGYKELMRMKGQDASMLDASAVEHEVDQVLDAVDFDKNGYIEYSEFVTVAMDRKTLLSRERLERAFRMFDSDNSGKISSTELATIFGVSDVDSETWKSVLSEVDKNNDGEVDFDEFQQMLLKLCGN

For the experiment, the target named is TgCDPK1 (Toxoplasma gondii, UniProt Q9BJF5). Put plainly: biochemical.

The compound `COCCOc1ccc2cc(-c3nn(CC4CCN(C)CC4)c4ncnc(N)c34)ccc2c1` [Example 11, 3-(6-(2-Methoxyethoxy)naphthalen-2-yl)-1-((1-methylpiperidin-4-yl)methyl)-1H-pyrazolo[3,4-d]pyrimidin-4-amine] came in with an IC50 of 15.5 nM.

The IC50 is the concentration needed to halve the response being measured. A high value points to weaker potency.
